# Patent US20100240872A1 (FORERUNNER PHARMA RESEARCH, published 2010)
# Target: Mucin 17 (Muc17) on AsPc1 pancreatic cancer cells (human, UniProt Q685J3 26-4493)
# Experiment: flow cytometry on AsPc1 cells, FITC anti-human IgG detection
binder,measurement,value
"chi.MQ128 (anti-Muc17 mouse-human chimeric antibody MQ128) (antibody, V domains shown) VH: QVQLQQSGAELVRPGSSAKISCKASGYEFSSHWMNWVKQRPGQGLEWIGQIYPGDGDINYNGKFKGKATLTADKSSSTVYMQLSSLTSEDSAVYFCARHYNYAMDYWGQGTSVTVSS VL: QIVLTQSPAIMSASPGEKVTISCSASSSVSYMCWYQQKPGSSPKPWIYRTSNLASGVPARFSGSGSGTSYSLTISSMEAEDAATYYCQQFHSYPRTFGGGTKLEIKR",binding result,binds
